# Assay results reported in PubChem BioAssay AID624416 (The Scripps Research Institute Molecular Screening Center, 2012).
# The list shows a part of the results, in another mix than the full data. Some of these compounds have results that are not shown, active ones among them. The source made the active and inactive calls. Rule as the data show it: active = inhibition above about 8.5%; inactive = the rest.
# Test system: HIV-1 gp120 / PG9 antibody interaction
# Assay: small molecules engaging PG9 antibody – biochemical, TR-FRET, primary screen (AID 624416)
# Conditions: TR-FRET gp120-PG9 antibody binding; at 6.7 µM; stronger effect = higher value
row,SMILES,inhibition
1,CN(C)c1ccc(C(=O)NCC2(N(C)C)CCCCC2)cc1,inactive: -1.67%
2,CN(C)C1CCCC1OC(=O)C(O)(c1ccccc1)c1ccccc1 (stereo unspecified),inactive: 0.02%
3,Cc1ccccc1C(=O)NCC1(N2CCCCC2)CCCCC1,inactive: -1.29%
4,COc1ccc(C(=O)NCC2(N(C)C)CCCCC2)cc1,inactive: -1.62%
5,O=C(NCC1(N2CCCCC2)CCCCC1)c1cccc(Br)c1,inactive: -2.91%
6,CCN1CCCC(OC(=O)C2(O)c3ccccc3C=Cc3ccccc32)C1 (stereo unspecified),inactive: 1.68%
7,Cc1cc(C(=O)NCC2(N3CCCCC3)CCCCC2)ccc1[N+](=O)[O-],inactive: -3.04%
8,O=C(NCC1(N2CCCCC2)CCCCC1)c1cc(F)c(F)cc1Cl,inactive: -0.36%
9,C=CCN1CCN(CCOC(=O)C(O)(c2ccccc2)c2ccccc2)CC1,inactive: -0.49%
10,CN1[C@@H]2CC[C@H]1CC(OC(=O)C(O)(c1ccccc1)c1ccccc1)C2 (stereo partly specified),inactive: -0.57%
11,O=C(NCC1(N2CCCCC2)CCCCC1)c1cc([N+](=O)[O-])ccc1Cl,inactive: -1.53%
12,Cc1ccc(C(=O)NCC2(N3CCCCC3)CCCCC2)cc1,inactive: -0.92%
13,COc1cc(SC)ccc1C(=O)NCC1(N(C)C)CCCCC1,inactive: 0.08%
14,CCN(CC)CC(C)C(C)OC(=O)C(O)(c1ccccc1)c1ccccc1 (stereo unspecified),inactive: 0.13%
15,CC(C)N1C(=O)CC2(CCN(CCOC(=O)C(O)(c3ccccc3)c3ccccc3)CC2)C1=O,inactive: -0.08%
16,O=C(OC1CN2CCC1CC2)C(CO)(c1ccccc1)c1ccccc1 (stereo unspecified),inactive: -0.3%
17,O=C(OCCN1CCCC1)C(O)(c1ccccc1)c1ccccc1,inactive: -0.26%
18,CC(C)Oc1ccc(C(=O)NCC2(N(C)C)CCCCC2)cc1,inactive: -2.23%
19,CN(C)c1cccc(C(=O)NCC2(N(C)C)CCCCC2)c1,inactive: -3.96%
20,C=C(C)C#CC(O)(C(=O)OC1CCN(C)CC1)c1ccccc1 (stereo unspecified),inactive: 0.81%
21,COc1ccc(Br)c(C(=O)NCC2(N3CCCCC3)CCCCC2)c1,inactive: -0.78%
22,COc1cc(C(=O)NCC2(N(C)C)CCCCC2)c([N+](=O)[O-])cc1OC,inactive: 0.47%
23,CN(C)C1(CNC(=O)c2ccc(Br)cc2)CCCCC1,inactive: -1.31%
24,O=C(NCC1(N2CCCCC2)CCCCC1)c1cccc(Cl)c1,inactive: 0.93%
25,COc1ccc(Cl)cc1C(=O)NCC1(N(C)C)CCCCC1,inactive: -1.3%
26,COc1cccc(C(=O)NCC2(N3CCCCC3)CCCCC2)c1,inactive: -0.6%
